Assay results: patent US7135295B1, “Detection of small molecules by use of a piezoelectric sensor” (dated 2006)

Legend:
[1] = system: 5B3 antibody; test: ELISA binding / inhibition assay of 5B3 antibody with haptens
[2] = system: DNP-Ab/anti-Ab complex; test: QCM amplified competition method with DNP-Ab/anti-Ab probe; details: 3.1×10^−12 g; reference without analyte −85 Hz (FIG. 25 curve c)

Compound | binding of 5B3 mAb to hapten [1] | crystal frequency change Δf [2] [Hz]
O=C(O)C1C=CC([N+](=O)[O-])=CC1(O)[N+](=O)[O-] (centres unmarked) | does not bind avidly | –
O=[N+]([O-])c1ccc(O)c([N+](=O)[O-])c1 | – | −12
